This note sets out measurements from patent US11124550B2, “Proteinaceous molecules and methods of use” (priority 2015, dated 2021).

The chains behind the UniProt entries cited, without tags or fusion partners.
UniProt P35499, whole entry: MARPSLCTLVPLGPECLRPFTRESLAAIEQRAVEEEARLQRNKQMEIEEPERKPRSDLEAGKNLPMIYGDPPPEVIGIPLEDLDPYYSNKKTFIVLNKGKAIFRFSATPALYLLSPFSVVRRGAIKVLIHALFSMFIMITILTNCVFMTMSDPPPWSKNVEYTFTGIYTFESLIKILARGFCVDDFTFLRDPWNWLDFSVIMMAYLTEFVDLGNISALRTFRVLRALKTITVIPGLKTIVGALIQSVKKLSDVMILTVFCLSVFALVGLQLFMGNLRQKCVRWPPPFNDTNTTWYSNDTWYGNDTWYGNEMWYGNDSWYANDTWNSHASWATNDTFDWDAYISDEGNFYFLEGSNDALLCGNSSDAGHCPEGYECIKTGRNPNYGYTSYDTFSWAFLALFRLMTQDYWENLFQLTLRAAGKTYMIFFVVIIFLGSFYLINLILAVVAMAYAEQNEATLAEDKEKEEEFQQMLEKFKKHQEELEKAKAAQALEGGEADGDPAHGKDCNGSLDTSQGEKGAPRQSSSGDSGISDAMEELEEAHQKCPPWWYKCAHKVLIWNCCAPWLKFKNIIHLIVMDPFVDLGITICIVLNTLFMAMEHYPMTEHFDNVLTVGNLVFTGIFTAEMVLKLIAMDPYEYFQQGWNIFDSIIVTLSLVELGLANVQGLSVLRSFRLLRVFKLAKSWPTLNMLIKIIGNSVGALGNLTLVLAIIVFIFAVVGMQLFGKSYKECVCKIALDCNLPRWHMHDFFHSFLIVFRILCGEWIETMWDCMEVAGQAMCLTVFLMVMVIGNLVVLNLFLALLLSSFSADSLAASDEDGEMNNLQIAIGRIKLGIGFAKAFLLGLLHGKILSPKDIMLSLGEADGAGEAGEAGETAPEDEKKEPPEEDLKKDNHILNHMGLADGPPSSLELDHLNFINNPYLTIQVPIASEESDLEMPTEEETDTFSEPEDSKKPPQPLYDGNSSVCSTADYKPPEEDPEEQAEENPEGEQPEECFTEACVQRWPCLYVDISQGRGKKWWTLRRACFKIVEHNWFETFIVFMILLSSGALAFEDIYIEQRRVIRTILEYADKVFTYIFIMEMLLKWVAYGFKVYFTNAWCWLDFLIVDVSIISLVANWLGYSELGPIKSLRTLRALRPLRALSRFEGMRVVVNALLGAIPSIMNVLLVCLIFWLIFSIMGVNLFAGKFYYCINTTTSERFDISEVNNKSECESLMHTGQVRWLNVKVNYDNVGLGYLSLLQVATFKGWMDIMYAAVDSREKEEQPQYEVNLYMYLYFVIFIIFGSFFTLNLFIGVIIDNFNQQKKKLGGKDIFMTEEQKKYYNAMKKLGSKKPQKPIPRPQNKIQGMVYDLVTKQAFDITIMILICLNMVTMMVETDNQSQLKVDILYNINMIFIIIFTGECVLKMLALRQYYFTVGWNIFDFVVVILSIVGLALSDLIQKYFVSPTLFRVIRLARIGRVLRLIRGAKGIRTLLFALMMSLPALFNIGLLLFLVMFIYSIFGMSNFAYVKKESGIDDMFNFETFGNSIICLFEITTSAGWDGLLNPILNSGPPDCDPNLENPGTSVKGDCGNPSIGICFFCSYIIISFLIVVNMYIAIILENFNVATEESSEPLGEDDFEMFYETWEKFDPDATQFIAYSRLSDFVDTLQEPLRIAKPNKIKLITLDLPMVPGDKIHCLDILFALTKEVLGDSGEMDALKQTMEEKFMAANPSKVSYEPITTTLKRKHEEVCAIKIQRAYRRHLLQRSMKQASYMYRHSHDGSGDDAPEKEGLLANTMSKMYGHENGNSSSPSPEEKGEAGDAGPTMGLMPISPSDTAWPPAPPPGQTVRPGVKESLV

Assay [1] relates to SCN1A (R1407X) Dravet syndrome mice. The assay is described as follows: ECoG interictal spiking after ICV infusion. Type of assay: in vivo, mouse. The settings on record: after ICV Hm1a (5 μL of 0.5 mM); before delivery 28±6; n=10; p=0.0059. An excerpt: Heterozygous SCN1A (R1407X) Dravet syndrome mice and wild-type littermates underwent ECoG and intracerebroventricular (ICV) guide cannula implantation surgery at post-natal day 18. ECoG surgery was as previously described in Reid, et al. (2011) Epilepsia, 52 (1): 115-120. In addition, a guide cannula was implanted during the surgery positioned in the right ventricle using a Kopf® stereotaxic frame with the following coordinates from bregma: caudal −0.4 mm and lateral 1.0 mm; 2.0 mm from the skull. At least 24 hours recovery was allowed following surgery before commencing ECoG recording and simultaneous infusion of either peptide or vehicle alone delivered via ICV. A total volume of 5 μL of peptide (0.5 mM) was infused, suspended in vehicle containing 0.1% BSA and sterile saline; control animals received 5 μL of vehicle only. Synthetic Hm1a (Example 1) or vehicle only was infused (0.1 μL/minute) via an internal cannula connected to a Hamilton syringe and driver (Harvard PHD 2000). […]
ECoG and video recordings were made for unrestrained animals at least one hour prior to ICV peptide delivery and then an additional 2-3 hours after infusion using Powerlab 16/30 (AD Instruments Pty. Ltd., Sydney, NSW, Australia); signals were band-pass filtered at 0.1 to 200 Hz and sampled at 1 kHz. […] Data was analysed using Sirenia Seizure Pro (1.6.6; Pinnacle Technology). […]

Another assay addresses T1, hNav1.4 (Homo sapiens, UniProt P35499).
T1 construct: expressed in transfected cells; host or cells: CHO
The assay is described as follows: Automated planar whole-cell patch clamp (Patchliner), hSCN4A CHO cells. The format is cell-based. Conditions: concentrations tested up to 50 nM. An excerpt: To characterize the functional activity of Hm1a and Hm1b, HEK293T cells stably transfected with either hSCN1A, hSCN2A, hSCN3A, hSCN5A, hSCN9A or hSCN10A as well as CHO cells stably transfected with hSCN4A or hSCN8A were used for whole-cell patch-clamp analysis with a high throughput automated planar patch-clamp technology.
HEK293T cells stably transfected with either hSCN1A, hSCN2A, hSCN3A, hSCN5A, hSCN9A or hSCN10A were maintained in Dulbecco's Modified Eagle's Medium Nutrient Mixture F-12 (Invitrogen, Carlsbad, Calif., USA) supplemented with 10% (v/v) foetal bovine serum (FBS) (Invitrogen), 0.9% Penicillin/Streptomycin (P/S) solution and 100 μg/mL hygromycin or 100 μg/mL neomycin. CHO cells stably transfected with hSCN4A or hSCN8A were maintained in Ham's F12 Nutrient Mixture (Invitrogen, Carlsbad, Calif., USA) supplemented with 10% (v/v) FBS, 0.9% P/S solution and 100 μg/mL hygromycin. All cells were grown in T75 flasks (BD Biosciences, San Jose, Calif., USA) to ˜70% confluency.
Patch-clamp recordings were conducted in the whole-cell configuration using a Patchliner® (Nanion Technologies, Munich, Germany). […]
(In general: The patch-clamp technique gives a direct electrical read-out from membranes.)

The structures appear in SMILES notation.

With `CC(C)C[C@@H]1NC(=O)[C@H](Cc2ccc(O)cc2)NC(=O)[C@H](CCCNC(=N)N)NC(=O)[C@@H](NC(=O)[C@@H](N)CCC(=O)O)CSSC[C@@H]2NC(=O)[C@@H]3CSSC[C@@H](C(=O)N[C@@H](C)C(=O)N[C@@H](Cc4c[nH]c5ccccc45)C(=O)N[C@@H](CC(=O)O)C(=O)NCC(=O)N[C@H](C(=O)N[C@@H](Cc4ccccc4)C(=O)N[C@@H](CO)C(=O)O)[C@@H](C)O)NC(=O)[C@H](Cc4ccc(O)cc4)NC(=O)[C@H](CCCCN)NC(=O)[C@H](Cc4c[nH]c5ccccc45)NC(=O)[C@H](CC(=O)O)NC(=O)[C@H](CO)NC(=O)[C@H](CCCNC(=N)N)NC(=O)[C@H](CSSC[C@H](NC(=O)CNC(=O)CNC(=O)[C@H](Cc4ccccc4)NC1=O)C(=O)N[C@@H](CO)C(=O)N[C@@H](CO)C(=O)N[C@@H]([C@@H](C)O)C(=O)N[C@@H](CO)C(=O)N[C@@H](CC(=O)O)C(=O)N3)NC(=O)[C@H](CO)NC(=O)[C@H](CC(C)C)NC(=O)[C@H](Cc1c[nH]cn1)NC(=O)[C@H](CCCCN)NC2=O` [Hm1a], the “number of high amplitude interictal spikes during 30 min epoch” value in assay [1] was determined as 12±2. The “effect on hNav1.4 current” value at hNav1.4 is on record as “no effect”.
